Target: FGFR1 (human) (UniProt P11362)
Settings: compound 10.0 µM

Sequences of proteins named here, by UniProt entry; tags and fusion partners are left off.
UniProt P11362, whole entry, looked up: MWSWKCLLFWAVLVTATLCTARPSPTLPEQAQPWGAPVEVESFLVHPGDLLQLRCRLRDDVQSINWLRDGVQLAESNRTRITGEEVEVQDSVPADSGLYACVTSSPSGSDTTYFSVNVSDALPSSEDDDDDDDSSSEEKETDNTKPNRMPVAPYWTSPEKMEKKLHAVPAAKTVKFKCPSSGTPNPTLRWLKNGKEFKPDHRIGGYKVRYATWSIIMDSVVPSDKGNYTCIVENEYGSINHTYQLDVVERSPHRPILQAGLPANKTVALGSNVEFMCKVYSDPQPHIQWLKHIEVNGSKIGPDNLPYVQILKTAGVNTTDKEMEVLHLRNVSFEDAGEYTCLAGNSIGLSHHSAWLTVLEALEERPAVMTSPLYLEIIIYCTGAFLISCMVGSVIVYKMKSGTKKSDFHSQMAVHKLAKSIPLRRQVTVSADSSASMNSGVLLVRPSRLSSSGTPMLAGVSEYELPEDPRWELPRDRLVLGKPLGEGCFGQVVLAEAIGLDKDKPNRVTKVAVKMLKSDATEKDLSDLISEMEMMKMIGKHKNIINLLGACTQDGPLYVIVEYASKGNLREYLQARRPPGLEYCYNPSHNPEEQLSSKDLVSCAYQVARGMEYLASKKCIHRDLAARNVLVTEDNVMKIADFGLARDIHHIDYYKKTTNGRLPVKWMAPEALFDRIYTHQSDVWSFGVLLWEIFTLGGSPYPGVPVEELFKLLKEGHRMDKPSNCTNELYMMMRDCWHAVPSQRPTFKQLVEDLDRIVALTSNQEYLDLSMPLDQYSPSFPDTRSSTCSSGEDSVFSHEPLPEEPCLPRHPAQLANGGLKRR

CO[C@@H]1[C@H](N(C)C(=O)c2ccccc2)C[C@H]2O[C@]1(C)n1c3ccccc3c3c4c(c5c6ccccc6n2c5c31)C(=O)NC4
inhibition: 69%
